These are literature values, as cited in patent publication US20020032197A1 (priority 1998, published 2002).

This series deals with serotonergic receptors. To be noted: in vitro.

Turning to `O=C(NCCN1CCOCC1)c1ccc(Cl)cc1` [moclobemide, p-chloro-N-(2-morpholinoethyl)-benzamide], the “affinity for serotonergic receptors” value is on record as “no appreciable affinity”.
